Earlier results on 1 molecule are cited in patent publication US20080261984A1, “Use of S,S-Reboxetine in the Treatment of Pain” (Pfizer Inc., priority 2004, published 2008).

Sequences of proteins named here, by UniProt entry; tags and fusion partners are left off.
UniProt P31645, whole entry: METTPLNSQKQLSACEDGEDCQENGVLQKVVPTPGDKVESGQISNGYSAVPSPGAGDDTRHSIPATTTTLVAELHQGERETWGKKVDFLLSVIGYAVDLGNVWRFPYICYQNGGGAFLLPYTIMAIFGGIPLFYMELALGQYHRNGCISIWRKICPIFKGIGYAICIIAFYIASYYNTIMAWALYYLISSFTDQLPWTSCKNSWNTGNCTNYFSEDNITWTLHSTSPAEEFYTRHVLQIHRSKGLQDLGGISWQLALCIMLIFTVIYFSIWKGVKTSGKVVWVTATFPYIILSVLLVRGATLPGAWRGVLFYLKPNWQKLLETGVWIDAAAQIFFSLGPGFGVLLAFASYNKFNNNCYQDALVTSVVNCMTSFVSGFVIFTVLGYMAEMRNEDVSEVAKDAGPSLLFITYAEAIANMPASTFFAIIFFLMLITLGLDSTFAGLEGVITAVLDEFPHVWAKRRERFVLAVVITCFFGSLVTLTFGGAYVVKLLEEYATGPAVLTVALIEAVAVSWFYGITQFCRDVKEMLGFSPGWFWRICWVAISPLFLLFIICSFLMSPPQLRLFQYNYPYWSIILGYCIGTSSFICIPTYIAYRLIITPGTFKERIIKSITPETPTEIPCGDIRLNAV

The target in the data set is serotonin reuptake (Homo sapiens, UniProt P31645). Particulars: cited from earlier work.

On to `CCOc1ccccc1O[C@@H](c1ccccc1)[C@@H]1CNCCO1` [(S,S)-reboxetine], for which the “serotonin reuptake inhibitory activity” value was “only marginal”.
